# Data: PubChem BioAssay AID602144 (Vanderbilt Specialized Chemistry Center, 2011)
# By UniProt entry, the sequences of proteins in these tests, tags left out. Where a name states a change or a piece, a line headed by the entry shows the natural chain unless it says otherwise.
# UniProt Q13393: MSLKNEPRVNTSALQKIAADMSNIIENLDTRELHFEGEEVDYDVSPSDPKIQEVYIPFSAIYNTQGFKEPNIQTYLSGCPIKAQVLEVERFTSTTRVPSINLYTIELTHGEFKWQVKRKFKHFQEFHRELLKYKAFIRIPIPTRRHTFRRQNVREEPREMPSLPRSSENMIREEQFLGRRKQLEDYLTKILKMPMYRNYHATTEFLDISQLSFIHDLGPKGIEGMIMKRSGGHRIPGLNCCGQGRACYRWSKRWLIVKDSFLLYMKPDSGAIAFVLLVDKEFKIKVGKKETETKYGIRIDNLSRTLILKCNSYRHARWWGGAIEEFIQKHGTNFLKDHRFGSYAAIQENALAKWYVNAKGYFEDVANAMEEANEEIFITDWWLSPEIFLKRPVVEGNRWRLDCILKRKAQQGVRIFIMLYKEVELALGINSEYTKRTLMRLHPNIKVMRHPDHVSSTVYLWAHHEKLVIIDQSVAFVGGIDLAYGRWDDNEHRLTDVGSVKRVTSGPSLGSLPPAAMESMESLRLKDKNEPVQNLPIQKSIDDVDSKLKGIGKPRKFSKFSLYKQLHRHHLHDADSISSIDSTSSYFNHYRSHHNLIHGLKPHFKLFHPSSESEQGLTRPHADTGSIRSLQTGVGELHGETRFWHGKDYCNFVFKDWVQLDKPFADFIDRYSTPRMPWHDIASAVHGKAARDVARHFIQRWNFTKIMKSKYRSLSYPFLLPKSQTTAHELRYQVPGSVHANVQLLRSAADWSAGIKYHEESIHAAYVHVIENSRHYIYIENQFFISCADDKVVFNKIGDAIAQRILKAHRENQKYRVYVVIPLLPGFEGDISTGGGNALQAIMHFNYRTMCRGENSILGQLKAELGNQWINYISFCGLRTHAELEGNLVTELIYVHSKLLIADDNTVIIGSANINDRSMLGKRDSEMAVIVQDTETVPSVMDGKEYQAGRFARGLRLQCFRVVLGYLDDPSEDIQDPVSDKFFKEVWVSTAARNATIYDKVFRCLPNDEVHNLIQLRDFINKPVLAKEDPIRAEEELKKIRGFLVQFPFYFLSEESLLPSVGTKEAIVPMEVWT
# What follows is the remainder of the data, with few or none of the hits. The source made the active and inactive calls. Cut-off read from the data, not from the text of the source: active = remaining activity below about 50%; inactive = the rest.
# Biological target: Phospholipase D1 (Homo sapiens) (UniProt Q13393)
# Assay: PLD1 inhibitors in cells, Calu-1 cells, single concentration (AID 602144);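 note: tested at 200 nM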
# Details: cellular PLD1 activity, stronger effect = lower value
structure (smiles),measurement,value
O=C(NCCN1CCC2(CC1)C(=O)NCN2c1cccc(F)c1)c1ccc2ccccc2c1,remaining activity,inactive: 83.3%
